# Assay results taken from US10752581B2, “4-((2-hydroxy-3-methoxybenzyl)amino)benzenesulfonamide derivatives as potent and selective inhibitors of 12-lipoxygenase” (Eastern Virginia Medical School, priority 2013, dated 2020).
# Protein sequences, listed by entry. Tags and fused reporters are not part of them. Lines headed by an entry give the natural chain unless they say otherwise; changes in a name come on top.
# UniProt P18054: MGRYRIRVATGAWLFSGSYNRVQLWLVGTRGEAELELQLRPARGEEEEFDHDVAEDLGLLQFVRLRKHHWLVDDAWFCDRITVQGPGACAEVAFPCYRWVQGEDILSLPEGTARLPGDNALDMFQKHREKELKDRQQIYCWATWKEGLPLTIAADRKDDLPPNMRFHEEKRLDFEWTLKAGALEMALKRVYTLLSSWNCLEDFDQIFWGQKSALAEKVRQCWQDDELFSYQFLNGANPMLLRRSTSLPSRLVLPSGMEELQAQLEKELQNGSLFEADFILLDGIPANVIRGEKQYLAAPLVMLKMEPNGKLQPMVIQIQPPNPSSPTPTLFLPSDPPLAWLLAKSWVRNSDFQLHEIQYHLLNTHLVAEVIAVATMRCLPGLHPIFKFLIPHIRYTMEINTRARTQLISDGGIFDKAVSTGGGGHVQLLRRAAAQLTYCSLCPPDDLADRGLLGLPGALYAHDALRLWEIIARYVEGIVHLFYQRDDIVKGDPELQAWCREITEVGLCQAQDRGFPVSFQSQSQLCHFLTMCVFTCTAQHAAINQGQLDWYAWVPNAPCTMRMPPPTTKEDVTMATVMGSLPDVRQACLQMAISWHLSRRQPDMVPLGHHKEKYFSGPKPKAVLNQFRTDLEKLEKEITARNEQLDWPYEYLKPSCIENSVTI
# UniProt P16050: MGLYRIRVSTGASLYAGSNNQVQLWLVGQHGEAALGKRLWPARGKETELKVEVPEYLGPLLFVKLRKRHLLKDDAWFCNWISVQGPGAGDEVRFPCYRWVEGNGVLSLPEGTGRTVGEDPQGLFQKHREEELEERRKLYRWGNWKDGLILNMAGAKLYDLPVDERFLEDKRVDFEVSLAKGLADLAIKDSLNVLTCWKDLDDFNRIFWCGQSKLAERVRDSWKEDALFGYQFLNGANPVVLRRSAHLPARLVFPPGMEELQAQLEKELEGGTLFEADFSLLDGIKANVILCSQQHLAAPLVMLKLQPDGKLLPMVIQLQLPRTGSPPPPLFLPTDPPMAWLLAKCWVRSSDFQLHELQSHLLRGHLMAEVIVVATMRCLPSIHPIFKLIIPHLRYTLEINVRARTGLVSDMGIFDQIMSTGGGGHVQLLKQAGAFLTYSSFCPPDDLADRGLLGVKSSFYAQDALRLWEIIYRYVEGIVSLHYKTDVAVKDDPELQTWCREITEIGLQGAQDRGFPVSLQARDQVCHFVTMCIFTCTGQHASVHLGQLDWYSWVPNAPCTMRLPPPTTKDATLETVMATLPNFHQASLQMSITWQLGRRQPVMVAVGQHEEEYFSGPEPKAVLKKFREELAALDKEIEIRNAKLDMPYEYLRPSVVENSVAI
# Read-outs that look alike come from different tables or passages of the source.
# Legend:
# 12-LOX [1] = biological target: T1, 12-LOX (Homo sapiens (Human), UniProt P18054); details: 0.01% Triton X-100
# 12-LOX [2] = biological target: T1, 12-LOX; experiment: biochemical
# [3] = biological target: human reticulocyte 15-lipoxygenase-1 (15-LOX-1) (Homo sapiens (Human), UniProt P16050); experiment: Lipoxygenase UV-Vis assay (15-LOX-1); format: biochemical
# In Vivo PK (Mouse) = details: male, CD1, mouse, po, 30 mg/kg
smiles,measurement,setting,value
"COc1cccc(CNc2ccc(S(=O)(=O)Nc3nc4ccccc4o3)cc2)c1O [Compound 36, N-(benzo[d]oxazol-2-yl)-4-((2-hydroxy-3-methoxybenzyl)amino)benzenesulfonamide]",Ki,12-LOX [1]; from 1/Vmax replot,620 ± 100 nM
same,Ki,12-LOX [1]; from Km/Vmax replot,530 ± 200 nM
same,Ki,12-LOX [2],630 nM
"COc1cccc(CNc2ccc(S(=O)(=O)Nc3nc4ccccc4s3)cc2)c1O [Compound 35, N-(benzo[d]thiazol-2-yl)-4-((2-hydroxy-3-methoxybenzyl)amino)benzenesulfonamide]",IC50,"[3]; Table 4, read-out: 15-LOX-1 IC50",9700 nM
same,Tmax,In Vivo PK (Mouse),15 min
"COc1cccc(CNc2ccc(S(=O)(=O)Nc3nc4ccccc4[nH]3)cc2)c1O [Compound 37, N-(1H-benzo[d]imidazol-2-yl)-4-((2-hydroxy-3-methoxybenzyl)amino)benzenesulfonamide]",IC50,[3],> 70000 nM
same,IC50,"[3]; 15-LOX-1 IC50, Table 4",> 100000 nM
"COc1ccc2nc(NS(=O)(=O)c3ccc(NCc4cccc(OC)c4O)cc3)sc2c1 [Compound 62, 4-((2-hydroxy-3-methoxybenzyl)amino)-N-(6-methoxybenzo[d]thiazol-2-yl)benzenesulfonamide]",inhibition of 15-LOX-1 (in words),[3]; single concentration (25 μM),almost complete inhibition of 15-LOX-1
"COc1cccc(CNc2ccc(S(=O)(=O)Nc3cccc(C(C)C)c3)cc2)c1O [Compound 67, 4-((2-hydroxy-3-methoxybenzyl)amino)-N-(3-isopropylphenyl)benzenesulfonamide]",IC50,[3],> 100000 nM
